{
  "source": "patent US20160033699A1",
  "about": "“POLARIZING PLATE” (NITTO DENKO CORPORATION, priority 2014, published 2016)",
  "test": "log P value (octanol/water partition coefficient)",
  "data": [
    {"substance": "bisphenol A-ethylene oxide (4 mole) adduct di(meth)acrylate", "values": [
      {"measurement": "log P", "value": 5.15}
    ]}
  ]
}
